The assay has as its system human platelets. In words: Collagen I-induced platelet aggregation in platelet rich plasma. The assay is classed as cell-based. The conditions noted are these: 10 μM, 2 μg/mL collagen I, saline 85%±19%, mean ± SD, four donors.

As to `COC(=O)[C@H](c1ccccc1Cl)N1CCc2sccc2C1` [clopidogrel], the “platelet aggregation, collagen-induced, in PRP” value is reported as 38%±22%.

For the origin of these results see publication PMC4294129 (Drug Design, Development and Therapy, 2015).
